Source: US6720304B1, “Conjugate comprising a folic acid antagonist and a carrier” (priority 1997, dated 2004)

Assays:
[1] = system: healthy Sprague-Dawley rats; assay: Toxicity of the conjugates in healthy rats; assay type: in vivo, rat
Experimental: For this experiment, the conjugate according to the invention of D-methotrexate and human serum albumin (D-MTX-HSA) from Example 1 was used. Furthermore, the conjugate of methotrexate and human serum albumin (MTX-HSA) known from DE-A-.41 22 210.5 was employed.
Each of 5 healthy Sprague-Dawley rats received D-MTX-HSA or MTX-HSA. In each case, 4 mg conjugate (based on the amount of MTX or D-MTX of the conjugate) per kg body weight was injected at a 2-day interval.

[2] = system: Walker-256 carcinosarcoma; assay: Tumor therapy in Walker-256 carcinosarcoma-carrying rats; assay type: in vivo, rat; details: number of 5 rats
[3] = number of the 5 rats affected, 2 × 4 mg/kg injected at a 2-day interval, after the 3rd day
[4] = on the 4th day, 5 rats, 4 mg/kg at a 2-day interval

## MTX-HSA
[1]; healthy rats, 4 mg/kg at a 2-day interval, 4 mg/kg
  side-effects (in words): strong side-effects from the 3rd day; also recorded: considerable side-effects already appeared
[1]; number of the 5 rats affected, 2 × 4 mg/kg (based on MTX or D-MTX) injected at a 2-day interval, after the 3rd day
  MI: muscus membrane inflammation: 5
[1]; [3]
  DI: diarrhea: 5
  SC: shaggy coat: 5
  WL: weight loss: 5
[1]; number of the 5 rats, 2 × 4 mg/kg injected at a 2-day interval, after the 3rd day
  death: 5
[1]; [4]
  rats found dead in their cage: 2 rats
  rats that had to be euthanized because of very strong side-effects: 3 rats
[2]; 3 × 2 mg/kg (based on MTX) at 2-day intervals, start on 6th day after tumor transplantation
  remission: 3
[2]; 3 × 2 mg/kg at 2-day intervals
  SE: side-effects: 3
  death: death by tumor relapse: 2
  relapse: 2

Entries after “also recorded” stand apart in the source; their conditions may differ.
